Values quoted from earlier work, collected in paper PMC12580894 (Cancer Research Communications, 2025).

How the values were obtained:
[1] = tested on: bladder and non–small cell lung cancer cell lines; settings: cited from earlier work
[2] = tested on: advanced or metastatic gastrointestinal malignancies; settings: in vivo; cited from earlier work
[3] = tested on: advanced solid tumors; settings: human, in vivo; cited from earlier work

SMILES: C[C@@H]1COCCN1c1cc(-c2ccnn2C)c2ccnc(-c3ccn[nH]3)c2n1 [elimusertib]
- combination effect with either cisplatin or carboplatin [1]: synergistic effects
- efficacy with concomitant administration [2]: without any appreciable improvement in efficacy
- Objective response rates [3]: modest
- tolerability of alternate schedule 3 days on and 11 days off [3]: better tolerated
